# scFv variants of Ab-14 (light chain) against a SARS-CoV-2 spike peptide

Data: MIT Lincoln Laboratory AlphaSeq set, Engelhart et al. 2022, doi:10.1038/s41597-022-01779-4, as distributed in FLAb.

Antigen: PDVDLGDISGINAS, a 14-residue peptide of the SARS-CoV-2 spike HR2 region.

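The parent was found by panning a naive human phage display library on the peptide. AAYL50 was designed without a model: most single CDR substitutions and a random sample of double and triple ones. AlphaSeq pools MATa yeast showing the antibodies with MATalpha yeast showing the peptide. Pairs that bind mate more often; barcode pairs of the diploids are counted by sequencing. A regression on co-assayed BCL2-family reference pairs converts the normalised counts of each replicate to an apparent Kd. Mating was done three times.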

Each scFv is VH, a 15-residue (Gly4Ser)3 linker, VL, as in the parent Ab-14, and differs from it in the CDRs of the light chain only.
VH: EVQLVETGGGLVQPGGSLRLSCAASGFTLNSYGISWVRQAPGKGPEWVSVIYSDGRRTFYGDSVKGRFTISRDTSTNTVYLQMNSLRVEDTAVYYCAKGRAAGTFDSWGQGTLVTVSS
VL: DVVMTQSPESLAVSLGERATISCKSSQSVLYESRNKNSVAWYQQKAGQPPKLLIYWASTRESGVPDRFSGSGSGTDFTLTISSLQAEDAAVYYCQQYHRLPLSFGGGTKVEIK

Positions count from residue 1 of the parent VL; Y31I puts I in place of Y. Every variant below is changed at S103 of the VL (sequential numbering). Each Kd is an estimate from the mating assay, the geometric mean of the replicates in which the pair was seen; lower is stronger. A pair that was not seen in any replicate is written "nd"; this usually means weak binding, but a binder can also be missed. Background: pairings of library AAYL50 with three empty control strains gave a value in 18% of cases (median 15 µM, 5th percentile 970 nM). Values in that range, when seen in few replicates, are hard to tell from nonspecific mating. For each scFv, signals with the empty controls are counted beside the result.

changes,Kd,seen in,empty controls
Y31I+N37Y+S103V,31 nM,3 of 3,1 of 9
K36L+S38K+S103H,2.9 µM,2 of 3,3 of 9
R60W+P101E+S103D,12 µM,1 of 3,3 of 9
S28W+H98T+S103D,nd,0 of 3,5 of 9
Y31T+S62I+S103M,8.6 nM,3 of 3,0 of 9
K36L+A57W+S103V,nd,0 of 3,1 of 9
S103Q,13 nM,3 of 3,6 of 9
S28I+L100T+S103L,nd,0 of 3,0 of 9
R34K+S38H+S103Q,4.1 µM,3 of 3,3 of 9
E32W+S58W+S103P,1.0 µM,2 of 3,0 of 9
S26M+L100G+S103L,24 µM,2 of 3,2 of 9
H98E+R99W+S103C,7.7 nM,3 of 3,2 of 9
W56T+R60H+S103C,42 µM,1 of 3,4 of 9
V29T+N35A+S103F,nd,0 of 3,1 of 9
S26Q+E32W+S103Q,290 nM,3 of 3,2 of 9
N37L+S103E,77 nM,3 of 3,0 of 9
A40R+R60H+S103R,nd,0 of 3,2 of 9
T59R+Q96Y+S103W,1.3 µM,3 of 3,2 of 9
R34H+V39T+S103H,nd,0 of 3,1 of 9
A40V+T59P+S103M,60 µM,1 of 3,2 of 9
S25H+V39F+S103C,35 µM,2 of 3,5 of 9
K24A+V29R+S103K,43 µM,2 of 3,1 of 9
L30T+R34I+S103I,23 nM,3 of 3,1 of 9
S33W+P101A+S103P,77 nM,3 of 3,3 of 9
S26D+R34S+S103L,9.6 nM,3 of 3,3 of 9
W56H+A57W+S103M,1.4 µM,1 of 3,0 of 9
Q27S+V39Y+S103M,2.9 µM,2 of 3,6 of 9
L30T+T59W+S103K,4.3 µM,1 of 3,2 of 9
R34S+S103L,nd,0 of 3,0 of 9
S62L+Y97W+S103M,4.2 nM,3 of 3,2 of 9
S33D+R60A+S103T,26 µM,2 of 3,2 of 9
S28N+R60H+S103Y,nd,0 of 3,1 of 9
Y31K+N35H+S103C,1.6 µM,3 of 3,1 of 9
K24M+L100W+S103V,16 nM,3 of 3,1 of 9
S58A+L100M+S103M,250 nM,3 of 3,1 of 9
Q27L+W56H+S103E,33 nM,3 of 3,4 of 9
T59L+R60M+S103L,9.8 µM,1 of 3,1 of 9
N35P+N37Q+S103P,38 µM,3 of 3,7 of 9
S26T+S103K,1.6 µM,3 of 3,1 of 9
A40F+P101G+S103K,180 µM,1 of 3,0 of 9
N35V+T59V+S103A,19 nM,3 of 3,3 of 9
E32A+R60H+S103G,nd,0 of 3,4 of 9
S38T+L100N+S103Y,3.2 µM,3 of 3,4 of 9
K24A+S103K,310 nM,1 of 3,0 of 9
Q27S+S28E+S103Q,21 nM,3 of 3,4 of 9
Q27G+N35L+S103H,120 nM,3 of 3,1 of 9
V39I+S58R+S103L,nd,0 of 3,0 of 9
Y31W+Q95A+S103V,nd,0 of 3,3 of 9
N35S+T59I+S103H,48 nM,3 of 3,0 of 9
V39W+H98Q+S103G,3.6 µM,1 of 3,1 of 9
R34C+E61G+S103G,540 nM,3 of 3,0 of 9
N37L+T59S+S103P,nd,0 of 3,0 of 9
K36L+Y97K+S103V,nd,0 of 3,0 of 9
Y31K+R34L+S103H,9.0 nM,3 of 3,4 of 9
A40P+L102H+S103F,nd,0 of 3,1 of 9
T59Q+L100Y+S103Q,nd,0 of 3,0 of 9
Y97V+S103E,nd,0 of 3,0 of 9
T59N+S103P,860 nM,3 of 3,4 of 9
K24C+L30H+S103M,nd,0 of 3,0 of 9
E32P+H98E+S103I,110 nM,3 of 3,5 of 9
K24D+S26L+S103I,9.9 µM,2 of 3,2 of 9
Q27R+K36W+S103Y,8.9 µM,2 of 3,0 of 9
T59M+E61Y+S103H,100 nM,3 of 3,1 of 9
R34S+K36D+S103L,10 nM,3 of 3,0 of 9
N37T+A40D+S103M,310 µM,3 of 3,9 of 9
T59D+R99I+S103I,nd,0 of 3,0 of 9
K24E+Y97H+S103K,21 µM,2 of 3,6 of 9
S33I+N35G+S103P,1.4 µM,2 of 3,1 of 9

The first 9 entries again:

changes,Kd,seen in,empty controls
Y31I+N37Y+S103V,31 nM,3 of 3,1 of 9
K36L+S38K+S103H,2.9 µM,2 of 3,3 of 9
R60W+P101E+S103D,12 µM,1 of 3,3 of 9
S28W+H98T+S103D,nd,0 of 3,5 of 9
Y31T+S62I+S103M,8.6 nM,3 of 3,0 of 9
K36L+A57W+S103V,nd,0 of 3,1 of 9
S103Q,13 nM,3 of 3,6 of 9
S28I+L100T+S103L,nd,0 of 3,0 of 9
R34K+S38H+S103Q,4.1 µM,3 of 3,3 of 9